What was measured:
signaling through CD3 = experiment: αCD3-induced cytokine expression in human PBMC (ELISA); format: cell-based; details: αCD3 alone, 10 μg/ml peptide
Description: (§1) Peripheral blood mononuclear cells (PBMC) from healthy human donors were separated on Ficoll Paque (Amersham), washed twice with 50 ml of RPMI 1640 medium, re-suspended at a density of 4×10^6 cells/ml and cultured in this medium supplemented with 2% fetal calf serum, 2 mM glutamine, 10 mM Minimum Essential Medium (MEM) nonspecific amino acids, […], 10 mM Hepes pH 7.2, 5×10^−5 M 2-mercaptoethanol, 100 u/ml penicillin, 100 μg/ml streptomycin and 5 μg/ml nystatin. Mouse anti-human monoclonal antibodies αCD3 (clone UCHT1; 100 ng/ml) and αCD28 (clone 37407; 2.5 μg/ml) (both from R&D Systems) were used as inducers. Cytokines in culture medium were determined with Quantikine ELISA kits (R&D Systems) according to the manufacturer's instructions.

Amino acid sequences for entries named in this document (tags omitted). Residues count along the entry.
UniProt P10747, 19-220: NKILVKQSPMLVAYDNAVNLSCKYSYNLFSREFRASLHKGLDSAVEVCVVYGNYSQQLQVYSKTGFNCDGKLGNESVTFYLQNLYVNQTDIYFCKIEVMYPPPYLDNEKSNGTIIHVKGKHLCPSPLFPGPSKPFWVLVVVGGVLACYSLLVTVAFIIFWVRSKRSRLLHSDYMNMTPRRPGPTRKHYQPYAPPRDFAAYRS
UniProt P10747, 19-152: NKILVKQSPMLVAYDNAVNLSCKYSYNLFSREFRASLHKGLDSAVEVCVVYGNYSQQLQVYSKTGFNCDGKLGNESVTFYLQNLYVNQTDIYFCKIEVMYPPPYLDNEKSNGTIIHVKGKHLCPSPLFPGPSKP

CD28 = target: T1, CD28 (Homo sapiens, UniProt P10747); experiment: αCD3/αCD28-induced cytokine expression in human PBMC (ELISA); format: cell-based; details: αCD3/αCD28, 10 μg/ml peptide
T1 construct: endogenous in cells; host or cells: human PBMC
Description: as §1

human PBMC = experiment: Cytokine induction by peptides alone in human PBMC (ELISA); format: cell-based; details: 10 μg/ml peptide, no inducer
Description: as §1

CD28-Fc = CD28-Fc (Homo sapiens, UniProt P10747); experiment: Surface plasmon resonance, CD28-Fc on immobilized peptide; format: binding; details: SPR, 25° C.
human IgG = experiment: Surface plasmon resonance, human IgG control on immobilized peptide; format: binding; details: SPR, studied in parallel
Description: Peptides were diluted to 10-200 μg/ml in 10 mM Sodium (Na) acetate pH 4.0 and immobilized on a CM5 sensor chip (BIAcore) using an amine-thiol coupling kit (BIAcore), respectively; the immobilized amounts were 500-1,000 resonance units. Analytes were injected at 20 μl/min in 25 mM HEPES pH 7.4, 150 mM NaCl, 3.4 mM EDTA, and 0.005% surfactant P20 under conditions showing no mass transport limitation. Regeneration was with 50 mM phosphoric acid. Kinetic analyses were performed at 25° C. in a BIAcore 3000 instrument, deducting the signal from the control flow cell from the binding signal. Analyte curves were run in duplicate; representative results are shown. Human IgG (Jackson Laboratories) served as control. Fusion of the IgG1-Fc domain to the 152-amino-acid extracellular domain of CD28 was performed as described below.

adjuvant arthritis = experiment: Adjuvant arthritis model; format: in vivo, rat; details: rats
[1] = Pharmacokinetic assay, serum level after IV injection; format: in vivo, mouse; details: mice
Description: Analysis was performed by reverse phase liquid chromatography with mass spectrometric detection. An Agilent 1100 MSD system with temperature-controlled autosampler was used. The system was calibrated using purified (D-A)-p2TA-(D-A) (molecular weight, 1,037.2 g/mol, Bachem) and blank mouse plasma (Harlan, Israel) as reference.

[2] = test system: collagen-induced arthritis; experiment: Collagen-induced arthritis model; format: in vivo, mouse; details: mice, 10 μg daily from disease onset (days 25-34)
IL-6 = experiment: Plasma IL-6 in irradiated mice (ELISA); format: in vivo, mouse; details: for inhibition of plasma IL-6 compared to irradiated mice: 8 Gy, 5 mg/kg IV 24 h after irradiation, day 7
fibrinogen = experiment: Plasma fibrinogen in irradiated mice (ELISA); format: in vivo, mouse; details: for plasma fibrinogen as % of fibrinogen levels in irradiated counterparts: 8 Gy, 5 mg/kg IV 24 h after irradiation, day 7
[3] = test system: small intestine (jejunal crypts, villi); experiment: Histopathological analysis of small intestine of irradiated mice; format: in vivo, mouse; details: for number of jejunal crypt microcolonies, RP group / mean villus height, irradiated and peptide-treated: 8 Gy, 5 mg/kg 24 h after irradiation, day 7
cyclin D1 = experiment: Cyclin D1 immunohistochemistry in jejunal crypts of irradiated mice; format: in vivo, mouse; details: BALB/c and A/J, 8 Gy, 5 mg/kg 24 h after irradiation, day 7
COX-2 = COX-2 immunohistochemistry in jejunum and spleen of irradiated mice; format: in vivo, mouse; details: 8 Gy, single administration 24 hours after radiation, day 7
[4] = target: B7-2/CD28 synapse formation (Homo sapiens, UniProt P10747); experiment: Intercellular B7-2/CD28 synapse formation by flow cytometry; details: HEK293T CD28/GFP and B7-2/Cherry cells, 0.1-1 μg/ml peptide
F4/80-positive cells = experiment: Immunohistochemistry of activated macrophage marker F4/80 in mouse jejunum; details: 8 Gy, 5 mg/kg 24 h after irradiation, day 7

SMILES: CSCC[C@H](NC(=O)[C@@H]1CCCN1C(=O)[C@H](CO)NC(=O)[C@@H](C)N)C(=O)N[C@@H](CC(C)C)C(=O)N[C@H](C(=O)N[C@@H](C)C(=O)N[C@@H](Cc1ccc(O)cc1)C(=O)N[C@@H](CC(=O)O)C(=O)N[C@H](C)C(=O)O)C(C)C [p2TA]
- αCD3-mediated induction of IFN-γ (signaling through CD3): did not inhibit
- αCD3-mediated induction of IL2 (signaling through CD3): did not inhibit
- αCD3-mediated induction of TNF-α (signaling through CD3): did not inhibit
- signaling through CD28 (IFN-γ, IL2, TNF-α secretion) (CD28): inhibit signaling through CD28
- Th1 cytokine response induced by peptide alone (human PBMC): do not induce a significant Th1 cytokine response
- apparent KD for binding to CD28-Fc (CD28-Fc): in the micromolar range
- affinity for IgG (human IgG): none of the peptides showed affinity for IgG
- cumulative reduction of disease symptoms (adjuvant arthritis; 100 μg peptide IV on each of days 1-15, monitored through day 29): 51%
- disease symptoms during treatment, up to day 15 (adjuvant arthritis; IV, dexamethasone daily days 10-15, peptides 100 μg daily days 1-15): did not exhibit inhibition of symptoms
- disease symptoms after termination of therapy on day 15 (adjuvant arthritis; two-week period after termination of treatment): leveled off and even showed a progressive further decline
- time after injection at which peptide was detected in serum [1]: 1 min
- time after injection by which peptide became undetectable in serum [1]: ≤ 5 min
- decrease of cumulative symptoms [2]: 59%
- inhibition of plasma IL-6 compared to irradiated mice (IL-6; A/J): 31.8%
- inhibition of plasma IL-6 compared to irradiated mice (IL-6; BALB/c): 40.4%
- plasma IL-6 levels in sham-irradiated mice (IL-6; sham-irradiated, 5 mg/kg): did not affect
- plasma fibrinogen as % of fibrinogen levels in irradiated counterparts (fibrinogen; A/J): 62.9%
- plasma fibrinogen as % of fibrinogen levels in irradiated counterparts (fibrinogen; BALB/c): 67.5%
- plasma fibrinogen levels in sham-irradiated mice (fibrinogen; sham-irradiated, 5 mg/kg): did not affect fibrinogen levels significantly
- number of jejunal crypt microcolonies, RP group ([3]; A/J, R group 7.8±1.6): 12.1±2.1 /μm
- mean villus height, irradiated and peptide-treated ([3]; A/J, control 208±45, irradiated 122±22): 176±42 μm
- number of jejunal crypt microcolonies, RP group ([3]; BALB/c, R group 6.5±1.3): 12.4±3.2 /μm
- mean villus height, irradiated and peptide-treated ([3]; BALB/c, control 192±41, irradiated 86±25): 141±27 μm
- villus height in sham-irradiated mice ([3]; sham-irradiated, 5 mg/kg): little or no effect
- radiation-induced decline in numbers of cyclin D1 positive cells (cyclin D1): negligible
- radiation-induced increase in expression of COX-2 in jejunum and spleen (COX-2): ameliorated
- intercellular B7-2/CD28 synapse formation [4]: pronounced inhibitory effect
- number of F4/80-positive cells (macrophages) in jejunum, RP group (F4/80-positive cells; A/J, control 1.04, irradiated 3.68): 1.37 ± 0.68 cells/mm2
- number of F4/80-positive cells (macrophages) in jejunum, RP group (F4/80-positive cells; BALB/c, control 3.39, irradiated 6.69): 0.77 ± 0.31 cells/mm2

Reference: patent US10280209B2 (YISSUM RESEARCH DEVELOPMENT COMPANY OF THE HEBREW …, priority 2013, dated 2019)
